## Measured affinities in a library of Ab-91 heavy chain variants

All variants were tested on one target, the spike HR2 peptide PDVDLGDISGINAS (SARS-CoV-2).

Parent scFv Ab-91: VL joined to VH by a (GGGGS)3 linker. Changes lie in the heavy chain CDRs alone.
VL: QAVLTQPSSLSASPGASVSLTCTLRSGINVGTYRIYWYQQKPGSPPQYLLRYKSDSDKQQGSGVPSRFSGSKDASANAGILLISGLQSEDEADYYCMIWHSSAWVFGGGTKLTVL
VH: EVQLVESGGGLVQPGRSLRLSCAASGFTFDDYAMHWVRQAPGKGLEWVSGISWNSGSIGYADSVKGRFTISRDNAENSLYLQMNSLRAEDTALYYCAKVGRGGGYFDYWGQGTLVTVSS

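The parent was found by panning a naive human phage display library on the peptide. Variants in AAYL51 differ from the parent at up to three CDR positions; double and triple changes were sampled at random. Affinity was read by AlphaSeq, a pooled yeast mating assay with surface-displayed partners. Pairs that bind mate more often; barcode pairs of the diploids are counted by sequencing. A regression on co-assayed BCL2-family reference pairs converts the normalised counts of each replicate to an apparent Kd. Mating was done three times.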

Variants are written as CDR1, CDR2 and CDR3 of the heavy chain (limits as in the source). Parent: GFTFDDYAMH, GISWNSGSIGYADSVK, VGRGGGYFDY. This list gathers variants with a substitution at D62 (VH, numbered from residue 1). Values are apparent Kd, the geometric mean of the replicates that gave a signal; lower means stronger binding. "nd" means that the variant was in the library but no mating with the target was seen in any replicate; the authors take this as a sign of poor binding, and no number exists. Background: pairings of library AAYL51 with three empty control strains gave a value in 21% of cases (median 34 µM, 5th percentile 1.8 µM). Values in that range, when seen in few replicates, are hard to tell from nonspecific mating. For each scFv, signals with the empty controls are counted beside the result. In this assay the parent's reference entry averaged 72 nM; its copy inside this library read 7.5 nM.

GFTFDDYAMK | GISWNSGSIGYATSVQ | VGRGGGYFDY: nd (0 of 3 replicates; controls 1 of 9).
GFTFLDYAMH | GISWNSGSIRYAQSVK | VGRGGGYFDY: 52 µM (1 of 3 replicates; controls 1 of 9).
GFTFDDYAMH | AISWNSGSIGYARSVK | VGRGGGYFDY: 330 µM (1 of 3 replicates; controls 5 of 9).
SFTFDDYAMH | GISWESGSIGYAYSVK | VGRGGGYFDY: nd (0 of 3 replicates; controls 1 of 9).
GFTFDDYAMH | GISWNSGSIGYAYSKK | DGRGGGYFDY: 45 µM (1 of 3 replicates; controls 2 of 9).
KFTADDYAMH | GISWNSGSIGYAFSVK | VGRGGGYFDY: 28 µM (1 of 3 replicates; controls 2 of 9).
GFTFDDYAMH | MISWNSGSIGYAQSVK | VGRGGGLFDY: nd (0 of 3 replicates; controls 1 of 9).
GFTFDDYAMH | GVSWNSGSIGYAMSVK | VGRGGGRFDY: 94 µM (2 of 3 replicates; controls 4 of 9).
GFTFDDYAMH | GISWNSGSIWYAQSVK | VGRGGHYFDY: nd (0 of 3 replicates; controls 0 of 9).
GFTFDDYAMH | GISWNSGSIGYANSEK | VGRDGGYFDY: 38 µM (1 of 3 replicates; controls 5 of 9).
GFTFDDYAMH | GISHNSGSIGYAESVK | VKRGGGYFDY: 13 µM (1 of 3 replicates; controls 1 of 9).
GFTFDDYAMH | GISWNSGSEGYAESVK | HGRGGGYFDY: nd (0 of 3 replicates; controls 0 of 9).
GFTFDDYAIH | GISWNSGSIGYAWSVK | VGRGGGPFDY: nd (0 of 3 replicates; controls 0 of 9).
GFTFDDYAMH | PISWNSGSIGYAQSVK | VGRGGGYFDQ: nd (0 of 3 replicates; controls 0 of 9).
GFTFNDYAMH | GISWNSGSIGYALSVK | VGRGSGYFDY: 750 nM (3 of 3 replicates; controls 1 of 9).
GFTFDDYAMH | GISWNSGSIGYAVSVK | VRWGGGYFDY: nd (0 of 3 replicates; controls 1 of 9).
GFTFDDYAMH | GISWNSGLIGYAYSVK | VGTGGGYFDY: nd (0 of 3 replicates; controls 0 of 9).
GFTFEDYAMH | PISWNSGSIGYAVSVK | VGRGGGYFDY: 46 µM (1 of 3 replicates; controls 1 of 9).
GFTFDDYAMH | GISWNSGSIGYANSVK | VGRGGGYPDF: 140 µM (1 of 3 replicates; controls 4 of 9).
GFTFDDYAMH | GIIWNSGSIGYAQSVK | VGRGHGYFDY: 3.0 µM (2 of 3 replicates; controls 2 of 9).
GFTFDDYLMH | GISWNSGSIGYAQSVK | VGRGGYYFDY: 9.8 nM (3 of 3 replicates; controls 0 of 9).
GFTFDVYAMH | GISWNSRSIGYANSVK | VGRGGGYFDY: 640 nM (3 of 3 replicates; controls 2 of 9).
GFTFDDYAMH | GISWNSYSIGYAPSVS | VGRGGGYFDY: 22 µM (3 of 3 replicates; controls 6 of 9).
GFTFDDYEMH | GISWNSGSIGYAVSVK | VGRGGFYFDY: 120 µM (3 of 3 replicates; controls 6 of 9).
GFTFDDYAMH | GTSWNSGSIGYACSVK | VGRGGGYFDY: nd (0 of 3 replicates; controls 2 of 9).
GFTFDDYAMH | GISWNSGSIGYATSVK | CGRGGGYFDK: nd (0 of 3 replicates; controls 1 of 9).
GFTFGDYAMH | GCSWNSGSIGYAISVK | VGRGGGYFDY: 24 µM (1 of 3 replicates; controls 0 of 9).
GFTFDDYAMH | GISWNSGSIGYASSVK | VGRGGGYFDY: 110 nM (3 of 3 replicates; controls 5 of 9).
GFTFDDYAQH | GISWNSGSIGYAASVK | VGRGPGYFDY: 270 µM (2 of 3 replicates; controls 2 of 9).
GFTFDDYAMH | GTSWNSGSIGYQVSVK | VGRGGGYFDY: nd (0 of 3 replicates; controls 0 of 9).
GFTFDDYAMH | GRSWNSGSIGVATSVK | VGRGGGYFDY: 21 µM (2 of 3 replicates; controls 3 of 9).
GFTFDDYAMH | GISKNSGSIGYAASVQ | VGRGGGYFDY: 22 µM (1 of 3 replicates; controls 7 of 9).
GFTFDDYEMH | GISWNSGSIGYALSVI | VGRGGGYFDY: nd (0 of 3 replicates; controls 0 of 9).
KFTFDDYAMH | GISWNSGSIGYARSVK | VGPGGGYFDY: 5.3 µM (3 of 3 replicates; controls 4 of 9).
GFTFDDYPPH | GISWNSGSIGYANSVK | VGRGGGYFDY: nd (0 of 3 replicates; controls 0 of 9).
GFTFDDYAMH | GISWNSGSIGYMMSVK | VGRGGGYFAY: 14 µM (3 of 3 replicates; controls 2 of 9).
GFTFDDYAMH | GISWNSGSIGWAISVK | VGRGGGYFDY: nd (0 of 3 replicates; controls 0 of 9).
GFMFDDYAMH | GISWNSGSIGYALSVK | VGRGGGYFDF: nd (0 of 3 replicates; controls 0 of 9).
GFTFADYAMH | GISWNDGSIGYAFSVK | VGRGGGYFDY: 15 µM (2 of 3 replicates; controls 6 of 9).
VFTFDDYAMH | GISMNSGSIGYANSVK | VGRGGGYFDY: 1.6 µM (1 of 3 replicates; controls 1 of 9).
GFTFDDYAMH | GISWNSGSIGYARSVK | LGRGGGYFFY: 90 µM (2 of 3 replicates; controls 4 of 9).
GFTFDDYAMH | GIRWNSGSIGHAFSVK | VGRGGGYFDY: 65 µM (3 of 3 replicates; controls 5 of 9).
GFTFFDYAMH | GISWRSGSIGYAYSVK | VGRGGGYFDY: nd (0 of 3 replicates; controls 1 of 9).
GFYFDDYAMH | GISWNSGSIGYAHSVK | VGRGGGYFDY: nd (0 of 3 replicates; controls 0 of 9).
GLTFDDYAMH | GILWNSGSIGYAQSVK | VGRGGGYFDY: 160 µM (3 of 3 replicates; controls 5 of 9).
GFTFDDYAMH | GISWNSGSIGYQSSVK | VGRGLGYFDY: 60 µM (2 of 3 replicates; controls 3 of 9).
GFTFDDYAMG | GISWGSGSIGYALSVK | VGRGGGYFDY: 21 µM (1 of 3 replicates; controls 3 of 9).
GFTFDDYAMH | GISWWSGSIGYAKSVK | NGRGGGYFDY: 9.0 µM (1 of 3 replicates; controls 1 of 9).
GFTFQDYAMH | GISWNSGSIGYASSVK | VGRGQGYFDY: 15 µM (1 of 3 replicates; controls 3 of 9).
GFTFDDYAMH | GISWNSGLIGYAHSDK | VGRGGGYFDY: nd (0 of 3 replicates; controls 1 of 9).

The opening 5 entries, copied out:

Variant GFTFDDYAMK | GISWNSGSIGYATSVQ | VGRGGGYFDY showed nd (0 of 3 replicates; controls 1 of 9).
Variant GFTFLDYAMH | GISWNSGSIRYAQSVK | VGRGGGYFDY showed 52 µM (1 of 3 replicates; controls 1 of 9).
Variant GFTFDDYAMH | AISWNSGSIGYARSVK | VGRGGGYFDY showed 330 µM (1 of 3 replicates; controls 5 of 9).
Variant SFTFDDYAMH | GISWESGSIGYAYSVK | VGRGGGYFDY showed nd (0 of 3 replicates; controls 1 of 9).
Variant GFTFDDYAMH | GISWNSGSIGYAYSKK | DGRGGGYFDY showed 45 µM (1 of 3 replicates; controls 2 of 9).

From the AlphaSeq antibody data of Engelhart et al. 2022 (doi:10.1038/s41597-022-01779-4), copy in the FLAb collection.